Antibody variant affinities, Ab-14 heavy chain, assay B

Target peptide (SARS-CoV-2 spike, HR2 region): PDVDLGDISGINAS

Each scFv is VH, three GGGGS repeats, VL, as in the parent Ab-14, and differs from it in the CDRs of the heavy chain only.
VH: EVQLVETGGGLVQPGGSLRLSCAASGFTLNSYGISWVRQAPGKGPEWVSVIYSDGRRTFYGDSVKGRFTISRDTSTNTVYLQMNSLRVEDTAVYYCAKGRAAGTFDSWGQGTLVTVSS
VL: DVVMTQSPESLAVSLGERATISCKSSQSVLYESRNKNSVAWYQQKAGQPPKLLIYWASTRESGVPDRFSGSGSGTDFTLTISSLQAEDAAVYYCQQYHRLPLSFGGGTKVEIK

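The parent was found by panning a naive human phage display library on the peptide. These sequences belong to a second round, designed from the earlier measurements on random variants of the parent. Several design methods are mixed in this list. Affinity was read by AlphaSeq, a pooled yeast mating assay with surface-displayed partners. Mating (16 h, 30 °C) was followed by selection of diploids and sequencing of their barcodes. The ratio of observed to expected reads was calibrated, replicate by replicate, on BCL2-family standards whose Kd was known from biolayer interferometry. Mating was done six times.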

Variants are written as CDR1, CDR2 and CDR3 of the heavy chain (limits as in the source). Parent: GFTLNSYGIS, VIYSDGRRTFYGDSVK, GRAAGTFDS.
This list holds designs with at most six substitutions.
The Kd shown is the geometric mean over detected replicates; a lower Kd is a better binder.
"no signal" marks a missing value. The strain was present, yet no cells mated with the target were sequenced in any replicate, which points to weak or no binding.
In the paper, a design with two or fewer of six values counts as a poor binder.
A sequence measured in both rounds can read differently, since the two assays cover different ranges.
As a blank, each scFv also met three strains without target: over all heavy chain designs, 1% of these pairings were detected, typically at 120 nM and seldom below 7.0 nM.

GFSLNEYGIS / VIYSDGRRTFYGDSVK / GLAAGTFDK: 2.0 nM (6 of 6 replicates).
GFTLNSYGIS / VIYSDGRRTFYGDDVK / GQTAGTFDV: 3.4 nM (6 of 6 replicates).
GETLNSYGIS / VIYSDGRRTFYGDSVK / GRAAGPFDS: 77 nM (2 of 6 replicates).
GFTLNSYGIS / VIYSDGRRTFYGDSVK / GQTAGTFDM: 31 nM (6 of 6 replicates).
GFDLNSYGIS / VIYSDGRRTFYADSVK / GRAAGTFDM: 2.3 nM (6 of 6 replicates).
GHTLNSYGIS / VIYSDGRRTFYGDSVR / GKAAGTFDS: 10 nM (6 of 6 replicates).
GFTLNSYGSS / VIYSDGRRTAYGDSVD / GREAGTFSS: no signal (0 of 6 replicates).
GFSLNNYGIS / VIYSDGRRTFYGDSVK / GRHAGTFDS: 42 nM (6 of 6 replicates).
GFQLNEYGIS / VIYSDGRRTFYGDSVK / GRTAGTFWS: no signal (0 of 6 replicates).
HFTLNSYGIS / VIYSDGRRTFYGDTVK / GRAAGTFDS: 200 nM (1 of 6 replicates).
GFQLNSYGIS / VIYSDGRRTFYSDSVK / GHAAGTFDS: 39 nM (6 of 6 replicates).
GFTLNSYGIS / VIYSDGRRTFYADSVK / GRAAGTFDD: 8.0 nM (6 of 6 replicates).
GFTLNSYGIS / VIYSDGRLTQYDDKVK / GRAAGTFDS: no signal (0 of 6 replicates).
HFSLNSYGIS / VIYSDGRRTFYADSVK / GRQAGTFDS: no signal (0 of 6 replicates).
GFTLNSYGIS / VIYSDGERTFYGDSVK / DYAAGTFDI: no signal (0 of 6 replicates).
GFDLNSYGIS / VIYSDGRRTFYADRVK / GKAAGTFDT: 1.3 µM (2 of 6 replicates).
GWTLNEYGIS / VIYSDGRRTFYGDSVK / GRTAGTFDG: 23 nM (1 of 6 replicates).
YFTLNSYGIS / VIYSDGMRTFYSDSVK / GRAAGTFDD: 32 nM (3 of 6 replicates).
GFDLNSYGIS / VIYSDGRRTFYADHVK / GEAAGTFDS: 3.4 nM (6 of 6 replicates).
GFELNSYGIS / VIYSDGRRTFYADHVK / GRTAGTFDS: 7.2 nM (6 of 6 replicates).
GFNLNSYGIS / VIYNDGRRTFYTDSVK / GRHAGTFDS: no signal (0 of 6 replicates).
GFDLNSYGIS / VIYSDGRRTFYADMVK / GNAAGTFDS: 2.8 nM (6 of 6 replicates).
GFSLNSYGIS / VIYADGRRTFYGDSVK / GRTAGTFDS: 880 pM (6 of 6 replicates).
GFTLNSYGIS / VIYSDGRRTFYIDSVK / GREAGTFFS: no signal (0 of 6 replicates).
GFTLNSYGIS / VIYSDGRRTFYGDSVK / GERAGTFDS: 180 nM (6 of 6 replicates).
GFTLNSYGIS / VIYSDGKRTFYSDSVK / GRQAGTFDT: 3.2 nM (6 of 6 replicates).
GFTLNEYGIS / VIYSDGRRTFYGDSVK / GRAAVTTDQ: 11 nM (1 of 6 replicates).
GFTLNEYGIS / VIYSDGRRTFYTDSVK / GRFAGTFDF: no signal (0 of 6 replicates).
GFNLNSYGIS / VIYSDGRRTFYHDSVK / GKEAGTFDS: 160 pM (6 of 6 replicates).
GFQLNSYGIS / VIYSDGMRTFYGDSVK / GRIAGTFDS: 43 nM (3 of 6 replicates).
GFSLNSYGIS / VIYSDGRRTFYKDSVK / GWAAGTFDN: 50 nM (3 of 6 replicates).
GFTLDSYGIS / VIYSDGIRTFYGDSVK / GRAAGTALS: no signal (0 of 6 replicates).
GFTLNSYGIS / VIYSDGRRTFYGDSVK / GRCAGEFDD: no signal (0 of 6 replicates).
GFTLNHYGIS / VIYSDGRRTFYGDSVR / GTQMGTFDS: no signal (0 of 6 replicates).
GFDLNSYGIS / VIYSDGQRTFYVDSVK / GKAAGTFDS: 27 nM (6 of 6 replicates).
KFNLNSYGIS / VIYSDGRRTFYIDSVK / GNAAGTFDS: 30 nM (1 of 6 replicates).
GFTLESYGIS / VIYSDGKRTFYGDNVK / GRAQGTFDS: no signal (0 of 6 replicates).
GFTLNQYGIS / VIYSDGKRTFYHDSVK / GRAAGTFDS: 120 nM (5 of 6 replicates).
GFTLNSYGIS / VIYSDGRRTFYGDSVK / GQTAGTFDR: 2.4 nM (1 of 6 replicates).
GFTLNSYGIS / VIYSDGRRTFYSDSVK / GKAGGTFDT: 44 nM (6 of 6 replicates).
GFTLNSYGIS / VIYADGRRTFYGDSVK / GFAEGTFDS: 91 nM (1 of 6 replicates).
GFTLESYGIS / VIYSDGRRTFYSDSVK / GKAGGTFDS: 230 nM (4 of 6 replicates).
GFTLNEYGIS / VIYSDGCRTIYGDSVK / GRAAGTFDS: 2.2 µM (2 of 6 replicates).
GFSLNSYGIS / VIYSDGRRTFYGDDVK / GEAAGTFDS: 5.5 nM (5 of 6 replicates).
GFTLNSYGIS / VIYADGRRTFYGDSVK / GRAAGTIKS: no signal (0 of 6 replicates).

Data: MIT Lincoln Laboratory AlphaSeq set, Li et al. 2023, doi:10.1038/s41467-023-39022-2, as distributed in FLAb.